Legend:
[1] = molecular target: PNA (peanut agglutinin, galactose specific lectin) (Arachis hypogaea, UniProt P02872); assay: sugar-lectin binding (agglutination) assay with PNA; conditions: glycosurfactant 5 mol percent in polymerized DC8,9PC vesicles; phosphate buffer; absorption at 400 nm against time until plateau
[2] = molecular target: Con A (glucose specific lectin) (Canavalia ensiformis, UniProt P02866); assay: sugar-lectin binding (agglutination) assay with Con A; conditions: glycosurfactant 5 mol percent in polymerized DC8,9PC vesicles; tris buffer; absorption at 400 nm against time until plateau

Sequences of proteins named here, by UniProt entry; tags and fusion partners are left off. A change or cut given only in a name is not applied to a line headed by its entry.
UniProt P02872: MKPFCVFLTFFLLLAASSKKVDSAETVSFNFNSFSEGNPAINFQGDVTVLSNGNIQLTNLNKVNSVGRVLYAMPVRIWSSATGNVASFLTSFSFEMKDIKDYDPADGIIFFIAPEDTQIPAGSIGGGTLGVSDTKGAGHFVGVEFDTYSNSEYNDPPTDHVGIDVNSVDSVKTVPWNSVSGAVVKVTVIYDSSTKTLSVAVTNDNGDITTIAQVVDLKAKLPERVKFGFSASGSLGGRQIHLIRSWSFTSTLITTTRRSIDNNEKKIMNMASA
UniProt P02866: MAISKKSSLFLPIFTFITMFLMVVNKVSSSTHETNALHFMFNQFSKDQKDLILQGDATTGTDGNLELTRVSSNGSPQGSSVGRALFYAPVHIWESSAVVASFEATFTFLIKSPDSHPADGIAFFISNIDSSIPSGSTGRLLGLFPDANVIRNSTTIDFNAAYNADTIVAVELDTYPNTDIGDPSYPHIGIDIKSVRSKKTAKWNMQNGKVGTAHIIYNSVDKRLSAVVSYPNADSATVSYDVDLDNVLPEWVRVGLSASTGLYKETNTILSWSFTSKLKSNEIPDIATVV

Substance | binding affinity (agglutination) to PNA [1] | binding affinity (agglutination) to Con A [2]
N-octadecyl lactobionamide | a binding affinity | negative affinity
N-octadecyl maltobionamide | negative affinity | a binding affinity

— patent US6541270B2, “Method, detector, and apparatus for colorimetric detection of chemical and biological agents” (dated 2003)
